From ChEMBL document CHEMBL1126275, “Conformationally restrained, chiral (phenylisopropyl)amino-substituted pyrazolo[3,4-d]pyrimidines and purines with selectivity for adenosine A1 and A2 receptors” (J Med Chem, 1992)

The chains behind the UniProt entries cited, without tags or fusion partners.
UniProt P25099, whole entry: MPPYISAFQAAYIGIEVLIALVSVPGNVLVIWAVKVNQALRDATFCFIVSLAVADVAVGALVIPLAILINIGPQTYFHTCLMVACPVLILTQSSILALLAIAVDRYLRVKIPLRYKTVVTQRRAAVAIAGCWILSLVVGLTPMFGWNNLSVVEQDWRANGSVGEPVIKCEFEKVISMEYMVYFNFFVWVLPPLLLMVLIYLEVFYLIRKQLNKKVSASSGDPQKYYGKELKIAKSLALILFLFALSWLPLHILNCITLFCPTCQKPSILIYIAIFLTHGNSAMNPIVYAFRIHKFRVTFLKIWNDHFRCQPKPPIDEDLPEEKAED

Biological target: Adenosine receptor A1 (Rattus norvegicus, UniProt P25099)
Test: Inhibition of [3H]CHA binding to Adenosine A1 receptor in rat cerebral cortical membranes
Format: cell membranes, Membrane
How it was run: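 Rat cerebral cortical membranes; displacement of [³H]CHA binding. Test compounds held as millimolar DMSO stocks, warmed to room temperature and diluted in water. Values from a single competition experiment, each concentration in triplicate.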

## CCCOc1nc2c(cnn2-c2ccccc2)c(=O)n1C
  IC50: 4.3 µM
